## Apparent affinities of Ab-14 variants for a coronavirus HR2 peptide

Data: MIT Lincoln Laboratory AlphaSeq set, Li et al. 2023, doi:10.1038/s41467-023-39022-2, as distributed in FLAb.

Binding partner: SARS-CoV-2 spike HR2 peptide, sequence PDVDLGDISGINAS.

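The parent was found by panning a naive human phage display library on the peptide. These sequences belong to a second round, designed from the earlier measurements on random variants of the parent. Group labels follow the data file (Ctrl: baseline library sampled from a position-specific scoring matrix, with some repeated check sequences; Rand: our label for a block that the file lists under HC and that is probably the random mutants of the ten best first-round binders; En: ensemble of fine-tuned language models; GP: Gaussian process model; HC: hill climbing; Gen: genetic algorithm; Gibbs: Gibbs sampling; a sequence that several methods proposed may carry one label only). The scFvs were displayed on barcoded MATa yeast, the peptide on MATalpha yeast. After mating in shaken culture at 30 °C for 16 h, diploids were selected and their barcode pairs sequenced. The ratio of observed to expected reads was calibrated, replicate by replicate, on BCL2-family standards whose Kd was known from biolayer interferometry. The assay was run in six technical replicates.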

Parent scFv Ab-14: VH joined to VL by three GGGGS repeats. Changes lie in the light chain CDRs alone.
VH: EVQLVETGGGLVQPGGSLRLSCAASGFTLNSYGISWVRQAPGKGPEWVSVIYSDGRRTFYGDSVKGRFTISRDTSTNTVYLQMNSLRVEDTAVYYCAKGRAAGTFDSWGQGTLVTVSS
VL: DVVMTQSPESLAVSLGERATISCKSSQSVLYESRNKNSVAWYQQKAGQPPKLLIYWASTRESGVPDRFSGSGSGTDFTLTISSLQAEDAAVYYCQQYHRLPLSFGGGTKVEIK

Variants are written as CDR1, CDR2 and CDR3 of the light chain (limits as in the source). Parent: KSSQSVLYESRNKNSVA, WASTRES, QQYHRLPLS.
Values are log10 of the apparent Kd in nM; lower means stronger binding.
Averages over replicates are reported, and they cover detected replicates only.
"not detected" means that the variant was in the library but no mating with the target was seen in any replicate; the authors take this as a sign of poor binding, and no number exists.

CDR-L1,CDR-L2,CDR-L3,group,"mean, log10 nM",seen in
KISQSWLYESRNKNPVA,GASFRES,QQYHRLPLS,GP_HC,1.49,5/6
IVSQLMLWGLHAKNSIA,EAELRLN,QQYDRLPLI,En_Gen,1.52,2/6
IISGSMWMESRNKNSVA,NAETREY,QHYDRLPLS,En_HC,3.47,1/6
KYSQSDLYESRNDNSVA,WATTRES,QQYHRLPLS,Ctrl,0.76,6/6
MVNGIMDHLSKQTNNVA,ETTTREM,QQYDRLPLS,En_Gen,0.85,6/6
MISQLMNLGQFAINSVA,QASIRNQ,QQYDRLPLI,En_Gen,1.66,6/6
MMSQVTGLGQRHRNNVA,QTSTRED,QQYDRLPLI,En_Gen,0.88,6/6
HISQSVGVTSRNKNSVA,ENSTRED,QQYDRLPLS,En_HC,1.86,4/6
KILGEIENSTYNRNSVA,HSTTRED,QSYHRLPLS,En_HC,0.55,6/6
KCSQSVLTESREKNSVA,SASTRES,QQYHRLPLS,Ctrl,0.12,6/6
KFSQSVLYETRNKNSVA,WASTRES,QQYHRLPLG,Ctrl,1.59,6/6
KLSQSNLYEWRNDNSVA,NASTRMS,QQYHRLPLS,GP_Gibbs,0.40,6/6
KLSQSVLYEDRNKNSVA,SASQRES,QQYHRLPLS,GP_Gen,-0.48,6/6
MISQVMNTLTRNGNNVA,DLQEREQ,QQYFRLPLS,En_Gen,1.52,6/6
KLSQSHLYESRNKNNVA,NASTRES,QQYHRLPLS,GP_Gen,0.48,6/6
KLQQSWLYESRNKNAVA,NASTRES,QQYHRLPLS,GP_Gen,-0.05,6/6
KSSQSVLYESGNKPSVA,NASTRES,PQHHRLPLS,Ctrl,not detected,0/6
KSSCSVLQEDRNSNSVA,NASTREL,QQYHRLPLS,GP_Gibbs,0.91,6/6
TLSQSMDMTSRNVNSVA,DLQTRGN,QQYHRLPLS,En_HC,0.62,6/6
KCSQSVFMESRNKASVA,WASTRES,QQYHELPLS,Ctrl,2.35,6/6
KLSQSTLYESRNKNSVA,HASTRES,QQYHRLPLS,GP_Gen,0.00,6/6
KLSMITGHMSMSKNNVA,EMETREN,QQYERLPLS,En_Gen,0.64,6/6
NISQMIFMETKNVNNVA,QTTTREE,QDYHRLPLS,En_HC,0.41,6/6

Continued, with the values leading:

"mean, log10 nM",seen in,CDR-L1,CDR-L2,CDR-L3,group
1.63,5/6,MMSQMFEGLSTSKNPVA,QVSTREE,QQYDRLPLS,En_HC
-0.20,6/6,KSSQSVLFEPRNKNSVA,DASTRES,QQYWRLPLS,Rand
1.20,6/6,HITYGMYVSGRYKSNIA,QAETRMQ,QQYDRLPLI,En_Gen
0.19,6/6,KSAYSEGYESRNKNSVA,DASTRSS,QQYHRLPLS,GP_Gibbs
0.25,6/6,KSSPSQLYEDRMDNSVA,NASQRES,QQYHRLPLS,GP_Gibbs
0.79,6/6,KISQLVNFLGKNKNSVA,QMSTRED,QQYDRLPLS,En_HC
1.98,6/6,MIYGAQRELGLAANSIA,DNVTRYE,QQYERLPLS,En_Gen
2.13,4/6,ILYDQVGTLSRNKNSVA,DNSTRES,QQYDRLPLS,En_HC
1.02,6/6,KLSQSDDYESRNKNSVA,NASTRES,QQYHRLPLS,GP_Gen
-0.39,12/12,KLSQSVLYESRNKNSVA,GASTRES,QQYHRLPLS,Ctrl+GP_Gen
-0.10,6/6,KSPQSVDYESRNKNSVA,EASTRES,QQYHRLPLS,GP_Gen
-0.07,6/6,KSGQGVLYEHRNWNSVA,GASTRES,QQYHRLPLS,Rand
1.00,6/6,SFSLESLGSKNEEASIA,STETLMS,QDYARLPLA,En_Gibbs
-0.22,12/12,KLSQSVLMESRNKNSVA,QASTRES,QQYHRLPLS,Ctrl+GP_Gen
0.06,6/6,KLPQSVLYESRNKNSVA,HASTRLS,QQYHRLPLS,GP_Gen
1.10,6/6,KSSQSVLYESRNKNSVA,SDSTRES,QQYHRLPLS,Ctrl
1.58,6/6,QLGMVQDMTSKNKNSVA,EQSTREN,QQYHRLPLS,En_HC
-0.09,6/6,KLSQSVLYESRNKNAVA,AASTRES,QQYHRLPLS,GP_Gen
2.71,1/6,NLSIQNQPQNMSANNVA,QTESRCE,QQYNQLPLA,En_Gibbs
1.04,6/6,KSSQSVLYESTNKNSVA,HASTRIS,QQYHELPLS,Ctrl
1.51,5/6,KSKQSVQYESRNKNSVA,HASTRES,QQYHRLPLD,Ctrl
3.11,4/6,IISQMFLGESRNRNSVA,QASTRES,QSYDRLPLS,En_HC
-0.03,6/6,KLSEMYQHTSRNKNNIA,ERSTRES,QQYHHLPLS,En_HC
0.56,6/6,NITQIGDNMGDQRANVA,NGETLFH,QQYARLPLL,En_Gibbs

Background: pairings of all light chain designs with three empty control strains gave a value in 4% of cases (median 2.64, 5th percentile 1.59). Values in that range, when seen in few replicates, are hard to tell from nonspecific mating.
A sequence measured in both rounds can read differently, since the two assays cover different ranges.
The parent sequence was in this pool as ten entries: three were never detected, three once, and four in most replicates, with averages from 0.34 to 2.37.
The authors' rule: three or more of the six replicates give a measured affinity, fewer mean a poor binder.
A sequence that the file lists under several names has all its replicates pooled.